## Ab-14 heavy chain CDR variants: yeast mating affinities

Binding partner: SARS-CoV-2 spike HR2 peptide, sequence PDVDLGDISGINAS.

Parent scFv Ab-14: VH joined to VL by three GGGGS repeats. Changes lie in the heavy chain CDRs alone.
VH: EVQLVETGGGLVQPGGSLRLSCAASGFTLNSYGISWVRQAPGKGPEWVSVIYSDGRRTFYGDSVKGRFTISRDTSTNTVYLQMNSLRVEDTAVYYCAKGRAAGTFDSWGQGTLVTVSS
VL: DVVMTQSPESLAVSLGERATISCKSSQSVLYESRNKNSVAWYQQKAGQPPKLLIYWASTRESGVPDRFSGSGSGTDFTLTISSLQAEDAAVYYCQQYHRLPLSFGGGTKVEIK

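The starting antibody came from a phage panning campaign against this peptide. Designed CDR sequences, proposed from the first random library and measured here. Their group label is 14H_GP_Gibbs (GP: Gaussian process model; Gibbs: Gibbs sampling; a sequence that several methods proposed may carry one label only). AlphaSeq pools MATa yeast showing the antibodies with MATalpha yeast showing the peptide. Pairs that bind mate more often; barcode pairs of the diploids are counted by sequencing. Read counts were normalised to the haploid input and turned into Kd by a linear fit to BCL2-family pairs of known affinity, for each replicate. Each pool was mated in six replicate cultures.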

Each variant is given by its three heavy chain CDRs, as the data file delimits them; those of the parent are GFTLNSYGIS, VIYSDGRRTFYGDSVK, GRAAGTFDS.
The read-out is the apparent dissociation constant on a log10 scale (nM): the lower, the stronger.
Replicates are averaged; those with no signal do not enter the mean.
A pair that was not seen in that replicate is written "nd"; this usually means weak binding, but a binder can also be missed.
The authors averaged sequences with at least three values out of six and counted those with two or fewer as poor binders.

CDR-H1,CDR-H2,CDR-H3,log10 Kd (nM) by replicate,"mean, log10 nM",signal with controls
GFTLESYGIS,VIYSDGRRTFYQDKVK,GRAAGTFDS,nd / nd / nd / nd / 2.17 / 1.54,1.85,0/18
GETLNEYGIS,VIYSDGRRTFYGDSVK,GRTAGTFDT,nd / 0.87 / 1.10 / 0.28 / 2.26 / nd,1.13,0/18
KFTLNSYGIS,VIYSDGRRTFYSDSVK,GQTAGTFDS,1.08 / nd / 1.95 / 0.96 / 1.95 / 1.91,1.57,0/18
GFTLNEYGIS,VIYSDGIRTFYGDSVK,GRQAGTFDT,0.62 / 0.89 / -0.01 / 0.09 / -0.10 / 0.44,0.32,0/18
GFNLNSYGIS,VIYSDGRRTFYGDKVK,GKEAGTFDS,1.15 / 0.31 / 1.09 / 0.17 / 0.26 / 0.10,0.51,0/18
GFDLNSYGIS,VIYSDGRRTFYGDMVK,GKTAGTFDD,0.85 / -0.27 / -0.19 / -0.21 / 0.09 / -0.08,0.03,1/18 (1.73)
GFDLNEYGIS,VIYSDGRRTFYGDQVK,GEAAGTFDK,0.47 / 0.77 / 0.41 / 0.17 / 0.49 / 1.47,0.63,0/18
GFELNAYGIS,VIYSDGRRTFYADSVK,GKTAGTFDS,1.47 / 1.27 / 2.07 / 1.29 / 1.19 / 0.66,1.32,1/18 (1.68)
GFDLKSYGIS,VIYSDGRRTFYGDNVK,GRTAGTFDS,-0.60 / -0.49 / -0.57 / -1.21 / -0.73 / -0.93,-0.75,0/18
MFDLNSYGIS,VIYSDGRRTFYTDSVK,GNAAGTFDS,1.56 / 1.26 / 1.04 / 1.20 / 1.29 / 1.20,1.26,2/18 (1.79)
GFSLNSYGIS,VIYSDGRRTFYGDSVK,GHAAGTFDD,nd / 1.02 / 0.81 / 1.39 / 1.30 / 0.88,1.08,0/18
HFDLNSYGIS,VIYSDGRRTFYGDSVK,GKAAGTFDV,1.29 / nd / nd / 1.30 / 1.22 / 1.13,1.23,0/18
GFELNSYGIS,VIYSDGRRTFYGDSVK,GQAAGTFDD,nd / nd / nd / 1.99 / nd / nd,1.99,0/18
GFELNSYGIS,VIYSDGRRTFYVDSVK,GKVAGTFDT,1.61 / 1.04 / nd / 1.67 / 2.44 / 3.01,1.95,0/18
GFQLNSYGIS,VIYSDGRRTFYGDAVK,GRTAGTFDS,1.66 / 1.09 / 1.11 / 1.58 / 0.97 / 1.42,1.31,0/18
GFTLDSYGIS,VIYSDGRRTFYGDQVK,GRTAGTFDK,nd / nd / nd / nd / nd / nd,nd,0/18
GFDLNSYGIS,VIYSDGQRTFYIDSVK,GQAAGTFDS,-0.34 / -0.14 / -0.19 / -0.66 / -0.36 / 0.11,-0.26,0/18
GFSLNSYGIS,VIYSDGRRTFYGDSVK,GMAAGTFDK,0.82 / 0.60 / 0.64 / 1.15 / 0.11 / 0.70,0.67,0/18
GFQLNEYGIS,VIYSDGRRTMYGDSVK,GRQAGTFDS,1.31 / 0.28 / 0.59 / -0.25 / 0.45 / 1.14,0.59,0/18
GFTLNEYGIS,VIYSDGRRTFYGDHVK,GRTAGTFMS,1.67 / 1.47 / 1.66 / 1.92 / 0.32 / 1.57,1.44,1/18 (3.65)
GFELNEYGIS,VIYSDGRRTFYGDSVK,GRTAGTFDC,nd / nd / nd / nd / nd / nd,nd,0/18
GFTLNSYGIS,VIYSDGQRTFYSDDVK,GREAGTFDT,-0.11 / -0.06 / -0.34 / -0.26 / -0.26 / -0.22,-0.21,0/18
GFSLNDYGIS,VIYSDGRRTFYKDTVK,GRTAGTFDS,0.12 / -0.15 / -0.20 / -0.22 / -0.31 / -0.06,-0.14,0/18
GFSLNSYGIS,VIYADGRRTFYGDRVK,GQAAGTFDK,-0.66 / -0.68 / -0.64 / -0.49 / -0.79 / -0.78,-0.67,1/18 (2.25)
GFDLNSYGIS,VIYSDGRRTFYGDDVK,GQEAGTFDS,0.08 / 0.07 / -0.10 / -0.03 / 0.25 / 0.23,0.08,1/18 (2.44)
GFSLNSYGIS,VIYSDGRRTFYADTVK,GEAAGTFDK,0.56 / 0.30 / 0.32 / 0.65 / -0.02 / 0.57,0.40,1/18 (2.48)
GFTLNSYGIS,VIYSDGKRTFYSDSVK,GEAAGTFDF,1.74 / 1.18 / 1.04 / 0.92 / 0.71 / 1.28,1.14,1/18 (1.93)
GFSLNEYGIS,VIYSDGRRTFYGDHVK,GRTAGTFDN,1.31 / 0.28 / -0.13 / 0.30 / -0.33 / 0.69,0.35,0/18
GFQLNSYGIS,VIYSDGRRTFYQDSVK,GRTAGTFDV,0.48 / 0.77 / 1.57 / 0.57 / 0.52 / 1.19,0.85,0/18
GFTLNSYGIS,VIYSDGLRTFYGDSVK,GQEAGTFDT,0.84 / 2.15 / 1.11 / 0.93 / 2.01 / 1.93,1.49,0/18
GFDLNSYGIS,VIYSDGHRTFYVDSVK,GRTAGTFDS,0.72 / 1.24 / 0.92 / 0.34 / 0.33 / 0.78,0.72,0/18
GFNLNSYGIS,VIYSDGRRTFYTDNVK,GRTAGTFDS,0.56 / 0.94 / 0.22 / 1.11 / 0.41 / 0.64,0.65,0/18
GFELNSYGIS,VIYSDGRRTFYGDNVK,GNTAGTFDS,0.59 / nd / 0.77 / nd / 1.79 / 1.08,1.06,0/18
GFQLNDYGIS,VIYSDGRRTFYGDQVK,GKTAGTFDS,0.40 / 0.29 / 0.35 / 0.39 / 0.87 / 0.94,0.54,0/18
GFELNSYGIS,VIYSDGQRTFYVDSVK,GKTAGTFDS,nd / nd / nd / nd / nd / nd,nd,0/18
GFHLNSYGIS,VIYSDGMRTFYSDSVK,GRTAGTFDS,1.08 / 0.34 / nd / -0.14 / -0.15 / 0.44,0.31,1/18 (2.07)
GFTLNSYGIS,VIYSDGWRTFYTDSVK,GRTAGTFDS,1.72 / 1.78 / nd / 3.01 / 1.85 / 1.10,1.89,0/18
GFSLNMYGIS,VIYSDGRRTFYIDSVK,GNAAGTFDS,0.92 / 1.51 / 0.56 / 0.46 / 0.82 / 0.94,0.87,0/18
GFDLNSYGIS,VIYSDGLRTFYGDSVK,GNAAGTFDS,1.08 / 1.06 / 0.87 / 1.48 / 1.02 / 0.99,1.08,2/18 (2.77)
GFHLNSYGIS,VIYSDGRRTFYADSVK,GQTAGTFDD,0.64 / 0.51 / 0.11 / 0.58 / 0.45 / 0.13,0.40,0/18
GFQLNSYGIS,VIYSDGRRTFYGDSVK,GQTAGTFDL,0.46 / 1.70 / nd / 1.62 / 0.32 / 1.23,1.07,1/18 (3.10)
GFELNDYGIS,VIYSDGRRTFYCDSVK,GRTAGTFDT,0.86 / 0.47 / 0.37 / 0.50 / 0.42 / 0.58,0.54,0/18
GFSLNSYGIS,VIYSDGRRTFYSDRVK,GQTAGTFDS,0.45 / 0.28 / 0.50 / 0.16 / 0.02 / 0.44,0.31,1/18 (2.40)
GFSLNSYGIS,VIYSDGKRTFYGDSVK,GNAAGTFDN,0.73 / 0.73 / 0.33 / 0.68 / 0.94 / 0.77,0.70,1/18 (2.21)
GFGLNSYGIS,VIYSDGRRTFYGDSVK,GMTAGTFDS,0.62 / 0.53 / 0.67 / 0.64 / 1.18 / 1.06,0.78,0/18
GFDLNSYGIS,VIYSDGRRTFYQDKVK,GRTAGTFDD,-0.03 / 0.70 / 0.31 / 0.07 / 1.31 / 0.43,0.46,0/18

Extract of 4 entries:

CDR-H1	CDR-H2	CDR-H3	log10 Kd (nM) by replicate	mean, log10 nM	signal with controls
GFTLESYGIS	VIYSDGRRTFYQDKVK	GRAAGTFDS	nd / nd / nd / nd / 2.17 / 1.54	1.85	0/18
GFELNSYGIS	VIYSDGQRTFYVDSVK	GKTAGTFDS	nd / nd / nd / nd / nd / nd	nd	0/18
HFDLNSYGIS	VIYSDGRRTFYGDSVK	GKAAGTFDV	1.29 / nd / nd / 1.30 / 1.22 / 1.13	1.23	0/18
GFTLDSYGIS	VIYSDGRRTFYGDQVK	GRTAGTFDK	nd / nd / nd / nd / nd / nd	nd	0/18

As a blank, each scFv also met three strains without target: over all heavy chain designs, 1% of these pairings were detected, typically at 2.08 and seldom below 0.84. For each scFv, signals with the empty controls are counted beside the result, with their mean in brackets.
The parent sequence was in this pool as ten entries: three were never detected, three once, and four in most replicates, with averages from 0.34 to 2.37.
The range of this assay differs from that of the first round, and the authors advise against merging the two.

Data: MIT Lincoln Laboratory AlphaSeq set, Li et al. 2023, doi:10.1038/s41467-023-39022-2, as distributed in FLAb.